Sequences of proteins named here, by UniProt entry; tags and fusion partners are left off. A change or cut given only in a name is not applied to a line headed by its entry.
UniProt P61073: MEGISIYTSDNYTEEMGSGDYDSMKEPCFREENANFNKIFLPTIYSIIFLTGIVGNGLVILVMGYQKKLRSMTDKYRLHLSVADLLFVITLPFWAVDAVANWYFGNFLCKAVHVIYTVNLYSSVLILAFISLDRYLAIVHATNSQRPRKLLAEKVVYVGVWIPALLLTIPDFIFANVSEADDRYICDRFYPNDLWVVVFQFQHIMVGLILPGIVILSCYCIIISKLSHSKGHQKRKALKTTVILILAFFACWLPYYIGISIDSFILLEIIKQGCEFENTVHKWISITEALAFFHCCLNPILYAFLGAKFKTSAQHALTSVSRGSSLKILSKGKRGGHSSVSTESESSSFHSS

In patent US20230242616A1, “CHEMOKINE-SELECTIVE CXCR4 ECTODOMAIN-DERIVED (POLY)PEPTIDE” (Ludwig-Maximilians-Universität München, priority 2020, published 2023):

Biological target: T1, msR4M-L1 (Homo sapiens, UniProt P61073)
T1 construct: made in house; host or cells: chemical synthesis (SPPS, Fmoc)
Assay: Fluorescence titration of Fluos-msR4M-L1 with partial MIF peptides
Settings: Screen of binding region MIF(38-80); Fluos-msR4M-L1 5 nM; read-out: App. KD
Method: Fluorescence spectroscopy. Fluorescence spectroscopic titrations were performed as described^28, 32. Fluorescence spectra were recorded using a JASCO FP-6500 fluorescence spectrophotometer. […] Apparent KD values (app. KD) were calculated assuming a 1/1 binding model^32.

Kd: > 5 µM
SMILES: CC[C@H](C)[C@H](NC(=O)[C@H](CCCCN)NC(=O)CNC(=O)[C@@H](NC(=O)[C@H](CO)NC(=O)[C@H](Cc1c[nH]cn1)NC(=O)[C@H](CC(C)C)NC(C)=O)[C@@H](C)CC)C(=O)NCC(=O)NCC(=O)N[C@@H](C)C(=O)N[C@@H](CCC(N)=O)C(=O)N[C@@H](CC(N)=O)C(=O)N[C@@H](CCCNC(=N)N)C(=O)N[C@@H](CO)C(=O)N[C@@H](Cc1ccc(O)cc1)C(=O)N[C@@H](CO)C(=O)N[C@@H](CCCCN)C(=O)N[C@@H](CC(C)C)C(=O)N[C@@H](CC(C)C)C(=O)O [MIF 62-80]
